Values of other authors, collected in publication PMC8342319, “Predicting blood-to-plasma concentration ratios of drugs from chemical structures and volumes of distribution in humans” (Molecular Diversity, 2021).

Assays:
[1] = human, intravenous, cited from earlier work
[2] = tested on: plasma protein; conditions: median if multiple values were reported, cited from earlier work; for fp_Human: human plasma free fraction, ref numbers in Table S1
[3] = median if multiple values were reported, ref numbers in Table S1; cited from earlier work

CCC(=O)N(c1ccccc1)C1(COC)CCN(CCc2cccs2)CC1
in vivo Vd_(L/kg)_Human ([1]; median if multiple values reported, Reference of Table S1): 9.400 L/kg

CCC(=O)N(c1ccccc1)C1CCN(CCc2ccccc2)CC1
fp_Human [2]: 0.160
Rb Human (blood-to-plasma concentration ratio) [3]: 0.99

CCC(=O)N(c1ccccc1)C1(COC)CCN(CCn2nnn(CC)c2=O)CC1
fp_Human [2]: 0.080
fp Human (free fraction in plasma) ([2]; human, collected value, ref: Table S1): 0.08
in vivo Vd_(L/kg)_Human ([1]; median if multiple values were reported, ref numbers in Table S1): 0.625 L/kg
Rb Human (blood-to-plasma concentration ratio) [3]: 0.63

Like-named read-outs stand apart in the source and are kept apart here. This is a selection: effects in other tests are not listed, and their absence says nothing.
